{
  "sequences": {"note": "Chains of the proteins cited; added tags and fusions are not shown.", "UniProt G1SXH9, whole entry": "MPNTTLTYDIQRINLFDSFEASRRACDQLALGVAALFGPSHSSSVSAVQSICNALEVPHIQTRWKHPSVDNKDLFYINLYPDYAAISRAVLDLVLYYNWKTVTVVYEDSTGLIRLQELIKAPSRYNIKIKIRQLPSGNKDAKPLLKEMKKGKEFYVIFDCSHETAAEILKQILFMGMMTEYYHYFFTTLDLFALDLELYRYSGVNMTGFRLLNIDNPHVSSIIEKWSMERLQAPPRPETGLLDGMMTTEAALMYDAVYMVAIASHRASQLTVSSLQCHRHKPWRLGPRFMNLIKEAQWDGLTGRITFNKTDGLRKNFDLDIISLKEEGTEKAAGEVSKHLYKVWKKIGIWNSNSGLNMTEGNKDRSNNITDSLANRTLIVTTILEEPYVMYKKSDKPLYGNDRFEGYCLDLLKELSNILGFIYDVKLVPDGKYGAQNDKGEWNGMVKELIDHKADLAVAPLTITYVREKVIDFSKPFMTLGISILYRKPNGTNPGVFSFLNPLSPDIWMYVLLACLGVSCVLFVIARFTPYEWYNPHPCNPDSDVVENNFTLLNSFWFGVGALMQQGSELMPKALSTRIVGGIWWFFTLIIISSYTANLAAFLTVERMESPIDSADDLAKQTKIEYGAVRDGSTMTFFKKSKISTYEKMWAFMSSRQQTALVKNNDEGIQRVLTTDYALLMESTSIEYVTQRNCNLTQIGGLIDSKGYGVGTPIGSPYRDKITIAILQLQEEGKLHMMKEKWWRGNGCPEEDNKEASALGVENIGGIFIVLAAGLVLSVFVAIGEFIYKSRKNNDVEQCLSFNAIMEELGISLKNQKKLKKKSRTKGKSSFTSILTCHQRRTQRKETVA"},
  "source": "BindingDB's records for doi:10.1016/s0028-3908(97)00161-5",
  "about": "(University of Bristol, 1997)",
  "target": "Glutamate receptor (Oryctolagus cuniculus, UniProt G1SXH9)",
  "data": [
    {"smiles": "NC(CCC(=O)O)C(=O)O", "note": "(stereo unspecified) [glutamic acid dianion]", "values": [
      {"measurement": "Ki", "value": 0.0311, "unit": "µM"}
    ]}
  ]
}
